This is a selection; strong and weak results do not stand in their true shares. Records with an inconclusive call do not appear. The source made the active and inactive calls. The call rests on the fitted dose curve; in most records, active means well fitted inhibition curve with a large enough effect in the main read-out, with a control signal flat; inconclusive means small, poorly fitted or top-dose-only effect, or a change in a side signal; inactive means no such curve, though single readings can be large or run the other way.

Protein sequences, listed by entry. Tags and fused reporters are not part of them. Residues count along the entry.
UniProt P55210, 24-198 limits assumed: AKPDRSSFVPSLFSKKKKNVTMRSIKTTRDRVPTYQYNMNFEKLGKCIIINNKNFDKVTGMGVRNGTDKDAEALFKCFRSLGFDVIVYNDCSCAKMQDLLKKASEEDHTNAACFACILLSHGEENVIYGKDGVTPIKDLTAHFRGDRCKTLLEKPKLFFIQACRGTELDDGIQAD
UniProt P55210, 207-303 limits assumed: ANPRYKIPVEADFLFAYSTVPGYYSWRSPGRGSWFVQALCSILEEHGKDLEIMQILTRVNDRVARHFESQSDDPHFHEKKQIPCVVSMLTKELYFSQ

In the assay the target is Caspase-7 (Homo sapiens) (UniProt P55210). As to the kind of experiment: Concentration-Response Counterscreen for Redox Active Inhibitors of Caspase-7: Cysteine. As to conditions: caspase-7 enzyme with cysteine, fluorogenic substrate; at 57.5 µM (top of the series). An excerpt: NIH Molecular Libraries Screening Centers Network [MLSCN]
NIH Chemical Genomics Center [NCGC]
PI Name: Dr. James Wells,
Dr. Enrique Perez-Paya, Dr.Janice Williams, Dr. Dennis Wolan, a person
The caspases (Cysteine Aspartyl Protease) comprise a related family of 14 dimeric proteases that are critical mediators of apoptosis (programmed cell death) and inflammation. The caspases represent an important class of drug targets for stroke, ischemia, cancer and inflammatory diseases. […] One goal of this project was to identify compounds that act as allosteric inhibitors via stabilizing the procaspase form of the enzyme. […]
The biochemical assay was configured using purified caspase 7 at a high enzyme concentration to promote formation of the homodimers and thus facilitate the identification of allosteric inhibitors. […] After initiation of the assay with substrate the plates were rapidly read using an automated robotic system (Kalypsys, Inc.) to maintain consistent timing. […] Product formation was also measured after 1 hour. […]
Caspase 7 was prepared in buffer (50 mM HEPES pH 7.5, 50 mM KCl, 200 mM NaCl, 10 mM Cys (Aldrich cat# 861677), 0.1% CHAPS) at a concentration of 66.6 nM and 3 uL was dispensed to all wells using black solid Kalypsys 1536-well plates. […] The plates were then exposed using 405 nm excitation/520 nm emission filters for 4 sec and read at 20 sec intervals for 3 min. […]

On to `C/C1=C2N=C(/C=C3N=C(/C(C)=C4\[N-][C@@](C)([C@H]5N=C1[C@@](C)(CCC(=O)NC[C@H](C)OP(=O)([O-])O[C@@H]1[C@H](O)[C@H](n6cnc7cc(C)c(C)cc76)O[C@@H]1CO)[C@@H]5CC(N)=O)[C@](C)(CC(N)=O)[C@H]4CCC(N)=O)[C@@](C)(CC(N)=O)[C@@H]\3CCC(N)=O)C(C)(C)[C@@H]/2CCC(N)=O.[C-]#N.[Co+3]`, for which the activity change, negative = inhibition is inactive: -22.6%.
